The values that follow come from ChEMBL document CHEMBL1129458, “Indole inhibitors of human nonpancreatic secretory phospholipase A2. 3. Indole-3-glyoxamides” (J Med Chem, 1996).

The target of the test is T1, Phospholipase A2, membrane associated (Homo sapiens, UniProt P14555).
T1 sequence (P14555 whole entry): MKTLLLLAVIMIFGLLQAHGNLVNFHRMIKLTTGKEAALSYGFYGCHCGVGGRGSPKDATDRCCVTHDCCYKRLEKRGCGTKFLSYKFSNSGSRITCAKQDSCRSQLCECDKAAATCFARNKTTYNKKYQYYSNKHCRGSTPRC
Put plainly: Inhibition of human nonpancreatic secretory Phospholipase A2 through DOC/PC assay. A digest of the protocol: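 hnps-PLA2 (10 ng per tube; 3 nM) was preincubated with test compound in DMSO in pH 8 Tris buffer with 0.2 M NaCl, 2 mM CaCl2 and fatty-acid-free BSA. The substrate was sonicated mixed micelles (final 3 mM deoxycholate/1 mM PC) with [14C]-palmitoyl-oleoyl-PC. Reactions ran 1 h at 40 °C and were stopped with Dole reagent. Released [14C]oleic acid was extracted with heptane/silica and counted. IC50 was calculated against diluent controls.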

With `CCc1c(C(=O)C(N)=O)c2c(OCC(=O)O)cccc2n1Cc1ccccc1` [VARESPLADIB], 7 nM corresponded to half-maximal inhibition (IC50).
